## Ab-91 heavy chain CDR variants: yeast mating affinities

Data: MIT Lincoln Laboratory AlphaSeq set, Engelhart et al. 2022, doi:10.1038/s41597-022-01779-4, as distributed in FLAb.

All variants were tested on one target, the spike HR2 peptide PDVDLGDISGINAS (SARS-CoV-2).

Each scFv is VL, the linker GGGGSGGGGSGGGGS, VH, as in the parent Ab-91, and differs from it in the CDRs of the heavy chain only.
VL: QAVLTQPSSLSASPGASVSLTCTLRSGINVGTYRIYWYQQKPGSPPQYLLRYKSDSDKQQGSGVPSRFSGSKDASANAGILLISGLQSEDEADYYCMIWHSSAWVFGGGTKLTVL
VH: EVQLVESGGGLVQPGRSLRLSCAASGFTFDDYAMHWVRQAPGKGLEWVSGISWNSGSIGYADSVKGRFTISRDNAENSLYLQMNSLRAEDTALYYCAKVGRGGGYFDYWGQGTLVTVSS

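Phage display of a naive human antibody library on the peptide gave the parent. AAYL51 was designed without a model: most single CDR substitutions and a random sample of double and triple ones. The scFvs were displayed on barcoded MATa yeast, the peptide on MATalpha yeast. Pairs that bind mate more often; barcode pairs of the diploids are counted by sequencing. Read counts were normalised to the haploid input and turned into Kd by a linear fit to BCL2-family pairs of known affinity, for each replicate. The assay was run in three technical replicates.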

Changes read parent residue, position, new residue, counted from the first residue of the VH shown. This list gathers variants with a substitution at V64 (VH, numbered from residue 1). The read-out is the apparent dissociation constant on a log10 scale (nM): the lower, the stronger. "ND" means that the variant was in the library but no mating with the target was seen in that replicate; the authors take this as a sign of poor binding, and no number exists. Nonspecific signal, from three strains lacking the peptide, appeared in 21% of pairings of library AAYL51, centred on 4.54 (5% of these signals below 3.26); values are not corrected for it. Also given: how often the same scFv was detected with the empty control strains. In this assay the parent's reference entry averaged 1.86; its copy inside this library read 0.88.

The variant Y32W V64K Y108Q showed ND, 6.00, 4.28 (controls 3 of 9).
The variant W53M V64R Y105E showed ND, ND, ND (controls 0 of 9).
The variant V64W showed 2.96, 1.71, ND (controls 0 of 9).
The variant V64C F106R showed ND, ND, ND (controls 1 of 9).
The variant V64Y showed ND, ND, 4.91 (controls 1 of 9).
The variant V64T F106Q showed ND, ND, 4.82 (controls 1 of 9).
The variant T28K V64S Y108L showed ND, ND, ND (controls 1 of 9).
The variant W53Q S55M V64D showed ND, ND, ND (controls 0 of 9).
The variant D31Y S63G V64L showed 1.49, 1.64, 1.11 (controls 0 of 9).
The variant Y32N I51H V64R showed ND, 3.56, 4.78 (controls 1 of 9).
The variant A33T I58Q V64S showed 3.70, ND, ND (controls 1 of 9).
The variant H35N V64Y G104Y showed ND, 5.14, ND (controls 6 of 9).
The variant V64R showed ND, 5.77, ND (controls 3 of 9).
The variant V64L Y108T showed 1.20, 1.32, 0.57 (controls 2 of 9).
The variant D30E N54F V64Q showed ND, 4.09, ND (controls 1 of 9).
The variant V64H K65N F106N showed ND, ND, ND (controls 2 of 9).
The variant T28W D62T V64W showed ND, 4.01, ND (controls 3 of 9).
The variant G50K V64F G104R showed 5.51, 5.82, ND (controls 4 of 9).
The variant M34T G56Y V64G showed ND, ND, ND (controls 3 of 9).
The variant D31M W53R V64S showed ND, 4.66, ND (controls 1 of 9).
The variant V64F K65V D107S showed ND, 3.67, ND (controls 2 of 9).
The variant S55T V64N Y105G showed 4.07, ND, ND (controls 0 of 9).
The variant I58E V64R G104H showed ND, ND, ND (controls 1 of 9).
The variant F29W V64Q showed 4.88, ND, ND (controls 3 of 9).
The variant T28F D30Q V64S showed 3.59, 3.34, 5.25 (controls 2 of 9).
The variant G56W G59M V64L showed ND, ND, ND (controls 1 of 9).
The variant I58E Y60G V64N showed ND, 4.65, ND (controls 4 of 9).
The variant F27H V64Y showed 4.14, ND, ND (controls 1 of 9).
The variant V64M R101V Y105I showed 4.12, 4.46, ND (controls 1 of 9).
The variant H35G V64I K65D showed ND, 5.33, ND (controls 7 of 9).
The variant A61F V64R Y105M showed ND, 6.39, ND (controls 5 of 9).
The variant H35G D62E V64M showed 4.29, 5.37, 4.69 (controls 6 of 9).
The variant T28G V64Q D107A showed 4.15, ND, ND (controls 1 of 9).
The variant A33L N54H V64A showed 4.41, ND, ND (controls 3 of 9).
The variant Y60N V64H showed 5.53, 5.49, 4.67 (controls 2 of 9).
The variant D30R V64C showed ND, ND, ND (controls 0 of 9).
The variant F29V G50T V64K showed ND, ND, 3.87 (controls 2 of 9).
The variant V64C showed 4.36, ND, ND (controls 0 of 9).
The variant S55C V64S K65W showed ND, ND, ND (controls 2 of 9).
The variant G59V S63P V64A showed 3.87, 6.04, ND (controls 2 of 9).
The variant D62G V64P G102T showed ND, 5.66, ND (controls 0 of 9).
The variant D30N V64E F106A showed 4.17, ND, ND (controls 2 of 9).
The variant V64P showed ND, ND, ND (controls 1 of 9).
The variant I51W V64R G104C showed ND, ND, ND (controls 1 of 9).
The variant H35S V64E F106D showed ND, ND, ND (controls 0 of 9).
The variant D31F V64M G100T showed 5.36, 3.43, ND (controls 0 of 9).
The variant M34P V64M G104M showed 5.96, ND, ND (controls 2 of 9).
The variant T28C S57L V64T showed 3.03, ND, ND (controls 0 of 9).
The variant G56F V64W G103P showed ND, ND, ND (controls 0 of 9).

Repeated from above, the 3 best binders with a signal in all replicates:

For V64L Y108T, the assay gave 1.20, 1.32, 0.57 (controls 2 of 9).
For D31Y S63G V64L, the assay gave 1.49, 1.64, 1.11 (controls 0 of 9).
For T28F D30Q V64S, the assay gave 3.59, 3.34, 5.25 (controls 2 of 9).